From publication PMC12482674 (Alzheimer's Research & Therapy, 2025) come the findings set out here.

Amino acid sequences for entries named in this document (tags omitted). Residues count along the entry.
UniProt P10636, 1-352 isoform P10636-2 C233S: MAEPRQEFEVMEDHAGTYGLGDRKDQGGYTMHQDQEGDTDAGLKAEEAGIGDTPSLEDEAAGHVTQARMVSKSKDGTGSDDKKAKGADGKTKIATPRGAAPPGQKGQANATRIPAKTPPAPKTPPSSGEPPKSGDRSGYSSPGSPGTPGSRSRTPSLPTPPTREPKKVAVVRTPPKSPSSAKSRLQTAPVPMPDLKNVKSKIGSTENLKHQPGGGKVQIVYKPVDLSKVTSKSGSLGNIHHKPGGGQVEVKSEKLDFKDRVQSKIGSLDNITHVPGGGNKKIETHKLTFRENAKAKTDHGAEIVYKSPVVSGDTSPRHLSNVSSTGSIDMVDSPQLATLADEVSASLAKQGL

For the assay, the target named is AD brain-derived tau seeds (Homo sapiens, UniProt P10636, C639S). It is filed as biochemical.

Consider `COc1cccc2c1C(=O)c1c(O)c3c(c(O)c1C2=O)C[C@@](O)(C(=O)CO)C[C@@H]3O[C@H]1C[C@H](N)[C@@H](O)[C@H](C)O1` [Epirubicin], for which the “maximum thioflavin fluorescence (ThT Max)” value was “complete inhibitory effect” and the “time to threshold (TTT)” value was “complete inhibitory effect”.
